Experiment: Bitter tasting threshold was expressed as log 1/T.
Type: functional

Compound | Log 1/T
CC[C@@H](C)[C@H](NC(=O)CN)C(=O)O | 1.7
CC[C@H](C)[C@H](N)C(=O)N1CCC[C@@H]1C(=O)O | 2.4
CC(C)C[C@H](NC(=O)[C@@H](N)CC(C)C)C(=O)O | 2.35
CC[C@@H](C)[C@H](NC(=O)[C@@H]1CCCN1)C(=O)O | 2.33
N[C@@H](Cc1ccccc1)C(=O)N1CCC[C@@H]1C(=O)O | 2.7
